Patent publication US20260055202A1 (TEXAS A AND M UNIVERSITY SYSTEM, published 2026)

Target: T1, human CD20 on Raji B lymphoma cells (human, UniProt P11836 1-297)
T1 construct: whole, on cells; also called hCD20
T1 sequence (looked up): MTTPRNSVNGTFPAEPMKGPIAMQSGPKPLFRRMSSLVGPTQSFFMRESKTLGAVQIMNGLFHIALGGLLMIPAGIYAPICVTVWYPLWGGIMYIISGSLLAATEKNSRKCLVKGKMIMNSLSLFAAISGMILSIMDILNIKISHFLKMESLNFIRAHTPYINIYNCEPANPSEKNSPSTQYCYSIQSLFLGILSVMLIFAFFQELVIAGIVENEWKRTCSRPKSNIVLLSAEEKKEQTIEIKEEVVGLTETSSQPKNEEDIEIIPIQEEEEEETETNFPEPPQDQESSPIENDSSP
Assay: flow cytometry on Raji cells (binding/hCD20 receptor occupancy), A488-labeled secondary anti-human IgG Fcγ Ab, MFI against concentration, 5PL fit
Protocol: The experiment was carried out by detection of bound unlabeled anti-hCD20 Abs using A488-labeled secondary anti-human IgG Fcγ Ab. Median fluorescence values from flow cytometry were obtained using FlowJo software. EC₅₀ values were generated from an asymmetric sigmoidal 5PL fit using GraphPad Prism. Data are from one of two independent, representative experiments. […] All statistical analyses were by unpaired t test.

B1: Obinutuzumab (humanized, afucosylated) (antibody, V domains shown)
VH: QVQLVQSGAEVKKPGSSVKVSCKASGYAFSYSWINWVRQAPGQGLEWMGRIFPGDGDTDYNGKFKGRVTITADKSTSTAYMELSSLRSEDTAVYYCARNVFDGYWLVYWGQGTLVTVSS
VL: DIVMTQTPLSLPVTPGEPASISCRSSKSLLHSNGITYLYWYLQKPGQSPQLLIYQMSNLVSGVPDRFSGSGSGTDFTLKISRVEAEDVGVYYCAQNLELPYTFGGGTKVEIK
- EC50: 2.7 µg/mL
